MC4R antag cAMP = antagonists of human melanocortin 4 receptor (MC4R); P32245; MC4R-expressing cells, MTII-stimulated cAMP, LANCE TR-FRET; inhibition, % at 6.5 µM; 360,000 compounds, 0.48% hits;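 active = inhibition above its plate's cutoff, the mean of tested wells on that plate plus 3 SD, cut at about 29% in these data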;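 note: 0% = Melanotan II alone and 100% = Melanotan II plus saturating MCL0020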
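Assay system: U2OS cells stably expressing human melanocortin 4 receptor (MC4R) / Dosing: 6.5 µM / Timing: compound 30 min, challenge 1 h, detection 1 h / Measured by: Eu-cAMP/anti-cAMP TR-FRET, emission 671 nm / Replicates: singlicate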
ARFGAP1 inhibitor = inhibitors of rat ARFGAP1. Q62848. Arfgap1-stimulated ARF1 GTP hydrolysis, GDP FP detection. inhibition, % at 16.5 µM. 360,000 compounds, 0.26% hits;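 active = inhibition above a per-plate limit, mean inhibition of low control wells plus 3 SD, cut at about 25% in these data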;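 note: 0% = DMSO wells with enzyme and 100% = wells lacking Arfgap1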
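Assay system: purified rat His6-Arfgap1 residues 1-136 (GAP domain); Reagent: human Δ17 ARF1 bound to GTP; Dosing: 16.5 µM single point, 1.26% DMSO; Times: GTP hydrolysis reaction 2 h at 25 °C; Signal: FP, GDP Alexa 633 tracer displaced from anti-GDP antibody, 620/688 nm; Measure: % inhibition from polarization.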
ASAP1 GAP inh = inhibitors of human ASAP1 ArfGAP activity; AID 624377; ASAP1-stimulated ARF1 GTP hydrolysis, GDP FP detection; inhibition, % at 16.5 µM; 360,000 compounds, 0.19% hits; in the data active = inhibition above about 25%;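 note: 0% = vehicle with enzyme and substrate and 100% = no enzyme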
MC4R barr agon = activates human MC4R beta-arrestin recruitment | U2OS MC4R beta-arrestin complementation, luminescence; percent of melanotan II response, DMSO zero | activation, % at 8.9 µM | 360,000 compounds, 0.98% hits;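 active = activation above a per-plate cutoff, the mean activation of sample wells on that plate plus 3 SD, cut at about 8% in these data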
CendR NRP1 mod = alters CendR peptide binding to human NRP-1; O14786; 360,000 compounds, 0.85% hits; FAM-RPARPAR peptide binding to NRP-1, fluorescence polarization; inhibition, % at 25 µM; AID 602438;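 active = inhibition or corrected inhibition above about 18%, plus a signal ratio from 0.5 to 1.5, limit read from the data, passing the limit was not always enough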
UUG fidelity = modulators of yeast start codon fidelity, primary screen, whole organism, S. cerevisiae, single point, plate reader; S. cerevisiae UUG-firefly luciferase reporter, luminescence/redox ratio; activity score, % at 18.7 µM; actives 0.13% (n = 350,000); AID 602363, 2012;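 active = replicate mean at a twofold rise or more, about +100% in these data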;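 also: firefly luciferase made from a UUG start codon reports start codon fidelity; reporter light over untreated wells divided by growth signal over untreated wells; some hits fall short of that in this replicate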
ASAP1 inh confirm = confirmation of human ASAP1 inhibitors | shares compounds with ASAP1 GAP inh | ASAP1-stimulated Arf1 GTPase, GDP fluorescence polarization | inhibition, % at 16.5 µM | 620 compounds, 37% hits | AID 624431;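 active = mean inhibition over triplicates exceeds the hit threshold derived for the earlier primary screening run, cut at about 25% in these data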
Starred values were filed as active, the others as inactive; nt = not tested or not shown. This is a sample that favours compounds with a hit; in the whole collection about 2.3% have one here.

| structure | MC4R antag cAMP | ARFGAP1 inhibitor | ASAP1 GAP inh | MC4R barr agon | CendR NRP1 mod | UUG fidelity | ASAP1 inh confirm |
| --- | --- | --- | --- | --- | --- | --- | --- |
| COc1cnc(-c2ccccc2)nc1Oc1cccc(C)c1 | -4.2 | 14.6 | 25.4* | 0.3 | 15.1 | -11.4 | 5.5 |
| COc1cnc(-c2ccccc2)nc1OC | 6.9 | -6.5 | 4.9 | -1.3 | 3.4 | nt | nt |
| COc1ccc(Cn2ccnc2SCC(=O)Nc2ccccc2OC)cc1 | 10.7 | -3.6 | 25.7* | -0.5 | 5.3 | -15.2 | 10.3 |
| COc1ccc(Cn2ccnc2SCC(=O)Nc2ccccc2F)cc1 | 5.3 | -3.9 | 5.4 | -2.4 | 12.5 | -8.3 | nt |
| C/C=C/c1cnc2c(c1)C(=O)N([C@H](C)CO)C[C@H](C)[C@@H](CN(C)C(=O)Cc1ccccc1)O2 | nt | nt | nt | nt | nt | 2.7 | nt |
| COc1ccc(N(C)S(=O)(=O)c2cccc(C(=O)NCc3ccc4c(c3)OCO4)c2)cc1 | -2.8 | 3.6 | 24.9* | 1.6 | 8.4 | -9.5 | 6.4 |
| COc1ccc(N(C)S(=O)(=O)c2cccc(C(=O)N3CCN(Cc4ccc5c(c4)OCO5)CC3)c2)cc1 | -1.5 | 5.6 | -5.3 | -2.3 | 3.2 | 5.1 | nt |
| COc1ccc(CCn2c(C)c(C(C)=O)c3cc(OC(=O)c4ccco4)ccc32)cc1OC | 15.5 | -7.7 | 24.8* | -0.6 | 6.9 | 6.6 | 6.3 |
| O=C1C=C(Nc2cccnc2)c2ccccc2C1=O | -20.1 | -6.6 | 25.9* | -1.2 | 23.2 | nt | 12.4 |
| O=C(O)/C=C/c1ccc([N+](=O)[O-])o1 | 3.7 | -8.3 | -9.7 | -0.9 | 3.6 | nt | nt |
| O=C1NC(=S)S/C1=C\C=C\c1ccc([N+](=O)[O-])o1 | 15.5 | 8.4 | 28.9* | 0.6 | -48.7 | -1.1 | 10.7 |
| Cc1noc(C)c1NC(=O)Nc1ccc2c(c1)C(=O)N([C@H](C)CO)C[C@@H](C)[C@@H](CN(C)Cc1ccc3c(c1)OCO3)O2 | nt | nt | nt | nt | nt | -7.7 | nt |
| COc1ccc(CN(C)C[C@@H]2OCCCC[C@H](C)Oc3ccc(NS(=O)(=O)c4cn(C)cn4)cc3C(=O)N([C@H](C)CO)C[C@H]2C)cc1 | nt | nt | nt | nt | nt | 8.5 | nt |
| COc1ccc(Cl)c(-c2cc(C(=O)Nc3ccc(C)c(NS(C)(=O)=O)c3)[nH]n2)c1 | 5.5 | 10.6 | 25.6* | -0.9 | -4.4 | -3.0 | 10.2 |
| COc1ccc(Cl)cc1-c1cc(C(=O)Nc2ccc(C)c(NS(C)(=O)=O)c2)[nH]n1 | 21.1 | 7.9 | 2.5 | 2.0 | 1.7 | 4.1 | nt |
| CC(=O)Nc1ccc(NC2=C/C(=N/S(=O)(=O)c3cccs3)c3ccccc3C2=O)cc1 | -6.0 | 8.6 | 19.7 | -2.1 | 2.3 | nt | nt |
| COc1ccc(S(=O)(=O)/N=C2\C=C(Nc3ccc(O)cc3)C(=O)c3ccccc32)cc1 | -40.8 | 19.5 | 38.2* | -1.5 | 17.8 | -13.2 | 25.4* |
| COc1ccc(C(=O)OC(C)CN2CCOCC2)cc1 (stereo unspecified) | 10.9 | 2.5 | 3.8 | -3.1 | 3.0 | 5.8 | nt |
| COc1ccc(C(=O)c2c(C)c3cc(C)ccc3n2CC(O)CN2CCOCC2)cc1 (stereo unspecified) | -4.3 | -8.5 | 25.8* | -0.8 | -1.7 | nt | 1.3 |
| COc1ccc(NC(=O)C2=CC(c3ccc(C)cc3)=NS(=O)(=O)N2C)cc1OC | 0.0 | 2.7 | 25.1* | -0.8 | 7.4 | 4.4 | 13.3 |
| COc1ccc(-c2ccc(SCC(=O)Nc3cccc(C(C)=O)c3)nn2)cc1OC | 6.0 | 1.1 | -1.8 | -2.0 | -4.9 | -33.6 | nt |
| CC(=O)c1cccc(NC(=O)CSc2ccc(-c3ccc4c(c3)OCO4)nn2)c1 | 9.8 | -3.1 | 25.0* | -2.4 | -3.7 | -14.1 | 53.6* |
| Nc1nnc(SCC(=O)Nc2cccnc2Cl)s1 | 1.0 | 14.1 | 2.8 | -1.1 | -2.7 | -18.9 | nt |
| Cc1cccc(Nc2nnc(SCC(=O)Nc3cccnc3Cl)s2)c1 | 10.1 | 3.9 | 29.7* | -1.9 | -2.4 | nt | 2.5 |
| S=C(Nc1ccc2nsnc2c1)N1CCCCC1 | 7.2 | 21.7 | 25.5* | 1.0 | 7.1 | nt | -0.5 |

Records listed above printed as active in ASAP1 inh confirm:
| structure | MC4R antag cAMP | ARFGAP1 inhibitor | ASAP1 GAP inh | MC4R barr agon | CendR NRP1 mod | UUG fidelity | ASAP1 inh confirm |
| --- | --- | --- | --- | --- | --- | --- | --- |
| COc1ccc(S(=O)(=O)/N=C2\C=C(Nc3ccc(O)cc3)C(=O)c3ccccc32)cc1 | -40.8 | 19.5 | 38.2* | -1.5 | 17.8 | -13.2 | 25.4* |
| CC(=O)c1cccc(NC(=O)CSc2ccc(-c3ccc4c(c3)OCO4)nn2)c1 | 9.8 | -3.1 | 25.0* | -2.4 | -3.7 | -14.1 | 53.6* |

One compound at a time (already shown):
Profile of COc1ccc(N(C)S(=O)(=O)c2cccc(C(=O)N3CCN(Cc4ccc5c(c4)OCO5)CC3)c2)cc1 : MC4R antag cAMP = -1.5; ARFGAP1 inhibitor = 5.6; ASAP1 GAP inh = -5.3; MC4R barr agon = -2.3; CendR NRP1 mod = 3.2; UUG fidelity = 5.1; ASAP1 inh confirm = nt
Profile of COc1ccc(N(C)S(=O)(=O)c2cccc(C(=O)NCc3ccc4c(c3)OCO4)c2)cc1 : MC4R antag cAMP = -2.8; ARFGAP1 inhibitor = 3.6; ASAP1 GAP inh = 24.9*; MC4R barr agon = 1.6; CendR NRP1 mod = 8.4; UUG fidelity = -9.5; ASAP1 inh confirm = 6.4

The results go on.
| structure | MC4R antag cAMP | ARFGAP1 inhibitor | ASAP1 GAP inh | MC4R barr agon | CendR NRP1 mod | UUG fidelity | ASAP1 inh confirm |
| --- | --- | --- | --- | --- | --- | --- | --- |
| O=[N+]([O-])c1ccc2c(c1)-c1ccccc1C2=NO | -6.7 | -6.8 | -4.1 | -0.3 | -16.5 | -23.3 | nt |
| Nc1ccc2c(c1)C(=NO)c1cc([N+](=O)[O-])ccc1-2 | 25.6 | -4.9 | 25.9* | -0.4 | -139.5 | -6.7 | 18.2 |
| C=CCn1c(-c2cccc3ccccc23)n[nH]c1=S | -2.2 | 4.5 | 52.5* | -2.5 | 7.0 | -11.6 | -2.5 |
| Cc1ccccc1S(=O)(=O)Oc1ccc2ccc(O)cc2c1 | 2.3 | 5.8 | 26.7* | 4.9 | 6.4 | -12.9 | 17.0 |
| Cc1ccccc1C(=O)Oc1ccc2ccc(O)cc2c1 | -3.3 | 2.2 | 2.6 | 5.0 | 4.8 | -12.3 | nt |
| C[C@H](CO)N1C[C@H](C)[C@H](CN(C)C(=O)Nc2ccc(F)cc2)Oc2ccc(NC(=O)Nc3ccc(F)cc3)cc2C1=O | nt | nt | nt | nt | nt | 0.2 | nt |
| C=CCn1c(C)cc(-c2csc(NC)n2)c1C | 5.7 | 0.2 | 25.7* | -0.4 | -16.2 | 1.1 | 5.3 |
| COc1cccc(/C=N/NC(=O)c2cc3cc([N+](=O)[O-])ccc3s2)c1O | -10.9 | 0.3 | 41.6* | -3.5 | 3.2 | -16.6 | 142.9* |
| CC(C)NC(=O)N(C)C[C@H]1Oc2ccc(NC(=O)C3CCCCC3)cc2CC(=O)N([C@@H](C)CO)C[C@H]1C | nt | nt | nt | nt | nt | 7.2 | nt |
| CN(C)c1ccc(/C=C/c2ccc3c4ccccc4ccc3[n+]2-c2ccccc2)cc1 | -4.8 | 123.3* | 86.5* | -2.6 | -78.3 | 94.9 | 95.2* |
| CN(C)c1ccc(/C=C/c2cccc[n+]2[O-])cc1 | -9.2 | -3.7 | 2.3 | -2.5 | -43.3 | -21.1 | nt |
| CCc1nnc(NC(=O)C2CCC(CNc3c(N4CCCCC4)c(=O)c3=O)CC2)s1 (stereo unspecified) | 1.4 | 4.8 | 28.0* | -0.8 | -3.8 | 6.7 | 0.5 |
| CCNC(=O)C[C@H]1CC[C@@H]2[C@H](COC[C@H](O)CN2C(=O)Nc2ccc3c(c2)OCO3)O1 | nt | nt | nt | nt | nt | 2.1 | nt |
| O=C(Cc1ccccc1)NCCn1ccc2ccccc21 | 0.2 | -0.5 | -6.3 | 0.0 | 1.8 | -10.7 | nt |
| CC(=O)NCCn1ccc2ccccc21 | 0.8 | 9.2 | 26.9* | 0.0 | 31.5* | -10.0 | 6.1 |
| COCCn1cnc2c(c1=O)c1nc3ccccc3nc1n2/N=C/c1ccc(OC)c(OC)c1 | 17.2 | -12.5 | 32.9* | 1.3 | 3.6 | nt | 37.5* |
| COC(=O)c1ccccc1-c1ccc(C(c2c(C)[nH][nH]c2=O)c2c(C)[nH][nH]c2=O)o1 | -0.5 | 20.5 | 30.7* | -1.9 | 7.3 | nt | -0.5 |
| COCCCNc1oc(/C=C/c2ccccc2)nc1C#N | 5.3 | 14.0 | 7.4 | -0.8 | -4.8 | -10.5 | nt |
| COc1cccc(/C=C/c2nc(C#N)c(NCC(C)C)o2)c1 | 5.9 | 0.9 | 29.0* | 2.3 | 12.3 | -20.5 | 15.3 |
| C[C@@H]1CN([C@H](C)CO)S(=O)(=O)c2ccc(-c3ccccc3)cc2O[C@@H]1CN(C)Cc1ccncc1 | nt | nt | nt | nt | nt | -0.5 | nt |

Screens as filed in PubChem.
